Several values for one entry are separate records, joined by “and”; a condition that tells them apart may be missing. Equal values may be shown once.
What was measured:
rat = test: Randall Selitto test in rats (inflammatory pain, Carrageenin-induced oedema); assay type: in vivo; conditions: applied alone
[1] = system: male albino rats (Sprague Dawley); conditions: single administration, i.v., amounts as hemicitrate salt

Compound: CN(C)[C@]1(c2ccccc2)CC[C@]2(CC1)OCCc1c3cc(F)ccc3[nH]c12
- ED50 (95% CI) (rat; i.v., 15 min p. appl., hemicitrate salt): 3.31 (2.85-3.75) μg/kg
- timepoint of peak effect (rat; first ingredient i.v., ibuprofen i.p.): 15 min p. appl.
- ED25 (95% CI) [1]: 0.0065 mg/kg and 0.0065 (0.0057-0.0072) mg/kg

Source: patent US20160199349A1 (priority 2012, published 2016)
